# Literature values in publication PMC11284790, “Targeting Myeloperoxidase Ameliorates Gouty Arthritis: A Virtual Screening Success Story” (Journal of Medicinal Chemistry, 2024).
# Test system: PARP1
# Conditions: read-out: PARP1 IC50; cited from earlier work
smiles,measurement,value
Nc1ccc2c3c(cccc13)C(=O)NC2=O [Compound 4ANI],IC50,0.18 µM
